Molecular target: Recombinant human BRD4(1-477) (Homo sapiens (Human), UniProt O60885)
Test: BRD4 TR-FRET biochemical IC50 assay
Type: binding
Details: tetra-acetylated histone peptide

| Compound | IC50 [nM] |
| --- | --- |
| COC(=O)[C@H]1CCCN1C1(c2ccccc2)C(=O)Nc2ccc(-c3c(C)noc3C)cc21 (stereo partly drawn) [Compound 2.54, (2R)-Methyl 1-(5-(3,5-dimethylisoxazol-4-yl)-2-oxo-3-phenylindolin-3-yl)pyrrolidine-2-carboxylate] | 220 |
| Cc1noc(C)c1-c1ccc2c(c1)C(N[C@H](C)CO)(c1ccccc1)C(=O)N2 (single isomer, unassigned) [Compound 2.10b] | 370 |
| Cc1noc(C)c1-c1ccc2c(c1)C(N[C@@H](C)CO)(c1ccccc1)C(=O)N2 (single isomer, unassigned) [Compound 2.9a] | 860 |
| Cc1noc(C)c1-c1ccc2c(c1)C(N[C@@H](C)CO)(c1ccccc1)C(=O)N2 (single isomer, unassigned) [Compound 2.9b] | 25 |
| Cc1noc(C)c1-c1ccc2c(c1)C(c1ccccc1)(N1CCC[C@@H](O)C1)C(=O)N2 (stereo partly drawn) [Compound 2.17, 5-(3,5-dimethylisoxazol-4-yl)-3-((R)-3-hydroxypiperidin-1-yl)-3-phenylindolin-2-one] | 40 |
| Cc1noc(C)c1-c1ccc2c(c1)C(c1ccccc1)(N1CCCC(O)C1)C(=O)N2 (stereo not drawn) [Compound 2.15, 5-(3,5-dimethylisoxazol-4-yl)-3-(3-hydroxypiperidin-1-yl)-3-phenylindolin-2-one] | 44 |
| Cc1noc(C)c1-c1ccc2c(c1)C(c1ccsc1)(N1CCC[C@H](O)C1)C(=O)N2 (single isomer, unassigned) [Compound 4.10b] | 19 |
| COC(=O)[C@@H]1CCCN1C1(c2ccccc2)C(=O)Nc2ccc(-c3c(C)noc3C)cc21 (stereo partly drawn) [Compound 2.52, (2S)-1-Methyl 1-(5-(3,5-dimethylisoxazol-4-yl)-2-oxo-3-phenylindolin-3-yl)pyrrolidine-2-carboxylate] | 190 |
| Cc1noc(C)c1-c1ccc2c(c1)C(c1ccccc1)(N1CCC[C@H](O)C1)C(=O)N2 (stereo partly drawn) [Compound 2.16, 5-(3,5-dimethylisoxazol-4-yl)-3-((S)-3-hydroxypiperidin-1-yl)-3-phenylindolin-2-one] | 19 |
